# High-throughput results as filed in PubChem BioAssay.
# G9a inh – G9a (human) methyltransferase inhibition | Potency, µM (titrated, usually from 102 µM), without a hit: at the top dose activity, negative = inhibition, usual class: inhibitors | actives 8.8% (n = 350,000) | AID 504332 | G9a H3K9 monomethylation, AlphaScreen, 2 h; also: potency is read from the fitted curve at half-maximal effect; % is scaled to controls: 0 for no effect and ±100 for the full control effect; nearly all actives have a fitted effect of over 75% in size
#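 Methyltransferase reactions run at room temperature for 2 h (20 nM enzyme, 500 nM biotin-H3K9 peptide, 20 uM SAM) after a 15 min compound preincubation; product detected by AlphaScreen beads and anti-H3K9me1 antibody.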
# KDM4E inh – inhibitors of human JMJD2E histone demethylase | actives 1.6% (n = 230,000) | Potency, µM (top dose mostly 57.1 µM), for the others: at the top dose activity change, negative = inhibition, actives largely listed as inhibitors | JMJD2E catalytic domain, FDH-coupled NADH fluorescence (FDH is formaldehyde dehydrogenase) | AID 2147 | B2RXH2; active = well fitted inhibition curve with a large enough effect, not every such curve was filed as active; inconclusive = small, poorly fitted or top-dose-only effect, or another doubt; inactive = no such curve, though single readings can be large or run the other way;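 also: potency is read from the fitted curve at half-maximal effect; 0% = wells with enzyme and -100% = buffer wells without enzyme; nearly all actives have a fitted effect of over 50% in size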
# ALDH1A1 inh – inhibitors of human aldehyde dehydrogenase 1A1. P00352. Purified ALDH1A1, NADH fluorescence, propionaldehyde substrate. Potency, µM (top dose mostly 75.3 µM), for inactives: at the highest dose activity, negative = inhibition, usual class: inhibitors. actives 7.3% (n = 220,000). AID 1030; active = well fitted inhibition curve with a large enough effect, not every such curve was filed as active; inconclusive = small, poorly fitted or top-dose-only effect, or another doubt; inactive = no such curve, though single readings can be large or run the other way;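 also: potency is read from the fitted curve at half-maximal effect; plate controls were no enzyme wells and a reference inhibitor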
# Lamin A splicing – changes lamin A minigene splicing in HeLa cells | HeLa LMNA splicing GFP/RFP minigene ratio, 48 h | Potency, µM (titrated, usually from 46.1 µM), for the others: top-dose ratio change, negative = inhibition, most hits filed as inhibitors | actives 0.01% (n = 200,000) | AID 1487; active = well fitted inhibition curve with a large enough effect in the signal ratio, with a control signal flat, not every such curve was filed as active; inconclusive = small, poorly fitted or top-dose-only effect, or effect the other way, or a change in a side signal; the % refers to the signal ratio; also: potency is read from the fitted curve at half-maximal effect; % is scaled to controls: 0 for no effect and ±100 for the full control effect
#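 S3 HeLa stable clones carrying a lamin A-EGFP splicing minigene plus DsRed2 were seeded at 600 cells/well in Opti-MEM with 2% FBS, pin-dosed and incubated 48 h at 37°C. Acumen cytometry (488 nm) gave the GFP/RFP total-intensity ratio.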
# Sfp PPTase inh – blocks B. subtilis Sfp PPTase activity | hit rate 3.5% among 310,000 | Potency, µM, for inactives: max response, negative = inhibition, hits mostly inhibitors | Biochemical Sfp PPTase activity, qHTS | Q9F4F7; active = well fitted inhibition curve with a large enough effect; inconclusive = small, poorly fitted or top-dose-only effect, or another doubt; inactive = no such curve, though single readings can be large or run the other way;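 also: the enzyme is Sfp with the accession as filed and its product quenches rhodamine fluorescence; potency is read from the fitted curve at half-maximal effect; 0% = enzyme reaction without inhibitor and -100% = no enzyme wells; top concentration of the series not given in the record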
#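 Reaction rates are the 30-min fluorescence difference (ex 525, em 598 nm) in wells containing 15 nM Sfp, 5 uM rhodamine-CoA and 12.5 uM BHQ-2-YbbR at pH 7.6 with 10 mM MgCl2.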
# miR-21 reporter – miR-21 reporter, rising signal | HeLa miR-21 FLuc reporter, luciferase, 48 h | Potency, µM (doses to about 38.3 µM), inactives show at the top dose reporter change, positive = more light | 340,000 tested, under 10 active | AID 2288; active = well fitted rising curve with a large enough effect; inconclusive = small, poorly fitted or top-dose-only effect; inactive = no such curve, though single readings can be large or run the other way;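 note: % of control where 0% means no effect; miR-21 action dims this reporter so a rising signal means less miR-21 action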
#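 HeLa cells endogenously expressing miR-21, stably carrying CMV-driven firefly luciferase with a downstream miR-21 binding site, 2000 cells/well. Titrations up to approximately 40 uM, 48 hours; luciferase luminescence read.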
# The depositor's hits bear a star; ? = inconclusive; · = no result; [ ] = dose if it differs, or a comment. Compounds with a hit are over-represented: about 13% of the library has one in this group of screens. Unless noted, calls follow the shape of the dose curve; as a rule, active = well fitted curve in the direction sought with a large enough effect; inconclusive = small, poorly fitted or top-dose-only effect, or another doubt; inactive = no such curve, though single readings can be large; an effect the other way counts as inactive or inconclusive.
SMILES,G9a inh,KDM4E inh,ALDH1A1 inh,Lamin A splicing,Sfp PPTase inh,miR-21 reporter
CCOC(=O)N1CCC(N2C(=O)c3ccc(C(=O)O)cc3C2=O)CC1,?,-2%,4%,15%,17%,0%
CCOC(=O)N1CCN(C(=O)c2c(Cl)cnn2C)CC1,7%,·,·,·,9%,-3%
CC(C)CO/N=C1/C[C@@H](O)[C@@H](O)[C@@H]2[C@@H]3C(=O)N(C4CCCCC4)C(=O)[C@H]3CC[C@H]12,·,·,-2%[13.5 µM],·,6%,·
Cc1cc(C)c2cc(CN(Cc3ccco3)C(=S)NCC3CCCO3)c(=O)[nH]c2c1 (configuration not stated),·,?,25µM*,·,20µM*,-3%
COc1ccc2cc(CN(Cc3ccco3)C(=S)NCC3CCCO3)c(=O)[nH]c2c1 (configuration not stated),19%[12.7 µM],?,?,?,-16%,-2%
Cc1cc2cc(CN(Cc3cccs3)C(=S)NCc3ccco3)c(=O)[nH]c2cc1C,7%[59 µM],?,?,-20%,1%,6%
Cc1ccc2cc(CN(Cc3nnnn3Cc3ccco3)CC3CCCO3)c(=O)[nH]c2c1C (configuration not stated),-19%[12.7 µM],?,1.8µM*,-18%,-75%,-5%
Cc1ccc(C)c2[nH]c(=O)c(CN(Cc3cccs3)C(=S)NCc3ccco3)cc12,0%[59 µM],?,25µM*,?,-17%,1%
Cc1ccc(C)c2[nH]c(=O)c(CN(CC3CCCO3)C(=S)NCc3ccco3)cc12 (configuration not stated),45µM*,?,·,·,-24%,7%
Cc1ccc(S(=O)(=O)Cn2nnnc2CN(Cc2ccco2)CC2CCCO2)cc1 (configuration not stated),7%[12.7 µM],4%,?,-6%,11%,-4%
CN(C)S(=O)(=O)c1ccc(C(=O)Nc2ccn(C)n2)cc1,-17%[59 µM],·,·,·,9%,-13%
CCc1ccc2[nH]c(=O)c(CN(CCN(CC)CC)C(=S)NCc3ccco3)cc2c1,·,?,?,·,79µM*,-2%
CCc1ccc2[nH]c(=O)c(CN(CCN(C)C)C(=S)NCc3ccco3)cc2c1,·,?,?,·,-15%,1%
CCc1ccc2[nH]c(=O)c(CN(CC3CCCO3)C(=S)NCc3ccco3)cc2c1 (configuration not stated),·,?,·,·,3.5µM*,12%
O=C(c1ccco1)N(Cc1cc2ccccc2[nH]c1=O)CC1CCCO1 (configuration not stated),5%,?,-1%,0%,14%,-2%
Cc1cccc2cc(CN(CC3CCCO3)C(=O)c3ccco3)c(=O)[nH]c12 (configuration not stated),50µM*,?,?,?,-5%,-9%
Cc1ccc2cc(CN(CC3CCCO3)C(=O)NC3CCCCC3)c(=O)[nH]c2c1C (configuration not stated),-4%,?,?,6%,7%,-5%
Cc1ccc2cc(CN(CC3CCCO3)C(=S)NCc3ccco3)c(=O)[nH]c2c1C (configuration not stated),45µM*,-9%,22µM*,?,32µM*,18%
CCc1ccc(NC(=O)c2ccc(NS(=O)(=O)c3c(C)noc3C)cc2)cc1,-25%[59 µM],·,·,·,·,-1%
CN(C)c1ccc(NC(=O)c2ccc(Cn3cc([N+](=O)[O-])cn3)cc2)cc1,14µM*,-5%,?,·,-2%,-30%
CCNS(=O)(=O)c1ccc(NC(=O)c2ccc(Cn3cc([N+](=O)[O-])cn3)o2)cc1,50µM*,5%,19µM*,·,1%,-4%
COc1ccc(NC(=O)c2ccc(Cn3cc(Cl)cn3)cc2)cc1,·,7%,-6%,·,-16%,3%
COc1ccc(-n2c(O)c(/C=N/Nc3nc(C)cc(C)n3)c3ccccc3c2=O)cc1OC,-23%,?,0.79µM*,?,9%,6%

# Single values from the entries so far:
# Cc1cc(C)c2cc(CN(Cc3ccco3)C(=S)NCC3CCCO3)c(=O)[nH]c2c1 (configuration not stated) in ALDH1A1 inh → 25µM*
# COc1ccc(NC(=O)c2ccc(Cn3cc(Cl)cn3)cc2)cc1 in Sfp PPTase inh → -16%
# COc1ccc2cc(CN(Cc3ccco3)C(=S)NCC3CCCO3)c(=O)[nH]c2c1 (configuration not stated) in Sfp PPTase inh → -16%
# CCc1ccc(NC(=O)c2ccc(NS(=O)(=O)c3c(C)noc3C)cc2)cc1 in G9a inh → -25%[59 µM]

# 3 entries already listed, sorted by molecular weight, ascending.
SMILES,G9a inh,KDM4E inh,ALDH1A1 inh,Lamin A splicing,Sfp PPTase inh,miR-21 reporter
COc1ccc(NC(=O)c2ccc(Cn3cc(Cl)cn3)cc2)cc1,·,7%,-6%,·,-16%,3%
Cc1ccc2cc(CN(CC3CCCO3)C(=O)NC3CCCCC3)c(=O)[nH]c2c1C (configuration not stated),-4%,?,?,6%,7%,-5%
COc1ccc(-n2c(O)c(/C=N/Nc3nc(C)cc(C)n3)c3ccccc3c2=O)cc1OC,-23%,?,0.79µM*,?,9%,6%
